Laboratory results reported in PubChem BioAssay AID488961 (Johns Hopkins Ion Channel Center, 2010).
The list shows a part of the results, in another mix than the full data. Active and inactive are the calls of the source.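 The calls were made as follows: active = ratio signal rise beyond 5 SD above unstimulated control wells' mean, seen in both duplicate runs; inactive = the rest.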

Chains of the proteins cited; added tags and fusions are not shown.
UniProt Q61143, whole entry: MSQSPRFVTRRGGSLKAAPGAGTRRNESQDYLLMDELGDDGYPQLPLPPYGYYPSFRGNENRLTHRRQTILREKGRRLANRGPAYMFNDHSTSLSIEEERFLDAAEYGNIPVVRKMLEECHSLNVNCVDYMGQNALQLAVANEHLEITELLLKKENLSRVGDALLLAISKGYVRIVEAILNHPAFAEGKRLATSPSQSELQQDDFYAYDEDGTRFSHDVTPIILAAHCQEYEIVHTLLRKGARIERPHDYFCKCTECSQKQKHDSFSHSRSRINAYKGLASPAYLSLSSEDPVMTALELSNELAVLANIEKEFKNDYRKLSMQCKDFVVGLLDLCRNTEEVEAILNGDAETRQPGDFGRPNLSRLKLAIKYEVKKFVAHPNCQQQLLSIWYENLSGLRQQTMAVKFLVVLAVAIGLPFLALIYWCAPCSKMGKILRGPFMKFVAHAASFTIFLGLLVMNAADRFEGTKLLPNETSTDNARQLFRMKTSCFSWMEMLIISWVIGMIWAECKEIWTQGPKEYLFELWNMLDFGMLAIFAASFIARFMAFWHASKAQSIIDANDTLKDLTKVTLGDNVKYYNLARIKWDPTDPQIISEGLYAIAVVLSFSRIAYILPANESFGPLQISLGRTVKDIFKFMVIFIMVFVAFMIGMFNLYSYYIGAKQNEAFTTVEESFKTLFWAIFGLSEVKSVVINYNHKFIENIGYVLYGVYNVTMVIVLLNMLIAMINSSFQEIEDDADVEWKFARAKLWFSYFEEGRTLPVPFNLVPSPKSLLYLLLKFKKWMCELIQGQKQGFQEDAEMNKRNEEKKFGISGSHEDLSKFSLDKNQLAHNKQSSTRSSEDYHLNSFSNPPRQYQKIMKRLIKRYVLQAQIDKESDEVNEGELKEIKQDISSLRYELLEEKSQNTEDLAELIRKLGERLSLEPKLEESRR

biological target: Short transient receptor potential channel 6 (Mus musculus) (UniProt Q61143); assay: mouse TRPC6 channel activators, confirmation, HEK293 cells, membrane potential dye, duplicate (AID 488961); conditions: HEK293-TRPC6 membrane potential dye fluorescence, FDSS; at 10 µM

Row | SMILES | outcome
1 | O=C(OC1CN2CCC1CC2)C1c2ccccc2Oc2ccccc21 (stereo not drawn) | inactive
2 | CN1CCN(CCOC(=O)C(O)(c2ccccc2)c2ccccc2)CC1 | inactive
3 | CCC(CO)(C(=O)OC1CN2CCC1CC2)c1ccccc1 (stereo not drawn) | inactive
